Screening results from PubChem BioAssay.
Sampled rows, rich in hits. Any-hit rate of the full collection: about 16%.
miR-21 reporter – raises the signal of a miR-21 reporter | HeLa miR-21 FLuc reporter, luciferase, 48 h | Potency, µM (doses to about 38.3 µM), without a hit: at the top dose reporter change, positive = more light | 340,000 tested, under 10 active | AID 2288; active = well fitted rising curve with a large enough effect; inconclusive = small, poorly fitted or top-dose-only effect; inactive = no such curve, though single readings can be large or run the other way;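 note: % of control where 0% means no effect; miR-21 action dims this reporter so a rising signal means less miR-21 action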
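HeLa cells endogenously expressing miR-21, stably carrying CMV-driven firefly luciferase with a downstream miR-21 binding site, 2000 cells/well. Titrations up to approximately 40 uM, 48 hours; luciferase luminescence read.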
uPA generation – blocks generation of uPA at the cell surface; AID 540303; actives 0.31% (n = 330,000); cell surface uPA generation assay, qHTS; Potency, µM (highest dose often 38.3 µM), for the others: at the top dose activity change, negative = inhibition, hits mostly inhibitors; active = well fitted inhibition curve with a large enough effect; inconclusive = small, poorly fitted or top-dose-only effect; inactive = no such curve, though single readings can be large or run the other way; tested in mouse RAW 264.7 cells; note: potency is the fitted concentration of half-maximal effect; % is set by controls: 0 for no effect and ±100 for the full control effect; nearly all actives have a fitted effect of over 55% in size
DT40 TDP1 no CPT – qHTS for Inhibitors of human tyrosyl-DNA phosphodiesterase 1 (TDP1): qHTS in cells in absence of CPT | actives 15% (n = 420,000) | Potency, µM (top dose mostly 46.2 µM), for inactives: top-dose activity change, negative = growth inhibition, hits mostly inhibitors | DT40 Tdp1-/- hTDP1 cells, no CPT, ATP luminescence, 48 h; note: potency is the fitted concentration of half-maximal effect; % is set by controls: 0 for no effect and ±100 for the full control effect; nearly all actives have a fitted effect of over 55% in size
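Compound effects on proliferation are scored in DT40 Tdp1-/-;hTDP1 cells in the absence of CPT. ATP levels (CellTiter-Glo luminescence) are recorded after a ≥48 hr, 37 °C incubation.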
TDP1 inh – blocks human tyrosyl-DNA phosphodiesterase 1; AID 485290; Potency, µM (series often up to 130 µM), for the others: at the highest dose activity change, negative = inhibition, usual class: inhibitors; recombinant TDP1, AlphaScreen DNA substrate cleavage; actives 0.28% (n = 350,000); Q9NUW8; note: potency is the fitted concentration of half-maximal effect; % is set by controls: 0 for no effect and ±100 for the full control effect; nearly all actives have a fitted effect of over 40% in size
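Recombinant human Tdp1 (E. coli-expressed, 1 nM final) preincubated with compounds 15 min at room temperature, then 5'-biotin/3'-phosphotyrosine-FITC DNA substrate (15 nM final) added for 5 min. AlphaScreen beads (10 ug/ml final) added 10 min; cleavage lowers signal.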
DT40 TDP1 CPT – DT40-hTDP1 cell growth loss with CPT; actives 12% (n = 420,000); chicken DT40 Tdp1-/-;hTDP1 cells + 20 nM CPT, ATP luminescence, 48 h; Potency, µM (series often up to 46.2 µM), inactives show at the highest dose activity change, negative = growth inhibition, most hits filed as inhibitors; note: potency is the fitted concentration of half-maximal effect; % is set by controls: 0 for no effect and ±100 for the full control effect; nearly all actives have a fitted effect of over 55% in size
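Chicken DT40 Tdp1-/- cells complemented with human TDP1, 400 cells/well, exposed to compounds plus 20 nM camptothecin for at least 48 h at 37 C; viability read as ATP content by CellTiter-Glo luminescence.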
An asterisk follows results filed as active; u = inconclusive; x = no result given; [ ] = another dose, or the depositor's remark. Unless noted, calls come from the whole dose curve; as a rule, active = well fitted curve in the direction sought with a large enough effect; inconclusive = small, poorly fitted or top-dose-only effect, or another doubt; inactive = no such curve, though single readings can be large; an effect the other way counts as inactive or inconclusive.

Fields: miR-21 reporter | uPA generation | DT40 TDP1 no CPT | TDP1 inh | DT40 TDP1 CPT
> Cc1ccc(NC(=O)CN2C(=O)CC(c3ccc(C)c(C)c3)=Nc3ccccc32)cc1
→ 3.8% | x | 18.4µM* | 9.7% | 20.6µM*
> CCOC(=O)c1ccc(NC(=O)CN2C(=O)CC(c3ccc(C)c(C)c3)=Nc3ccccc32)cc1
→ -16.8% | x | u | 4.5% | u
> O=C(CN1C(=O)CC(c2ccccc2)=Nc2ccccc21)Nc1ccc(Br)cc1
→ 16.5% | x | 20.6µM* | 7.1% | u
> COc1ccc(NC(=O)N2CC3(CCN(C(=O)c4ccco4)CC3)C2)cc1
→ x | x | -0.6% | x | 13.7%
> O=C(COc1cccc2ccccc12)NNC(=O)CSCCO
→ -2.3% | -0.8% | -6.0% | 1.1% | 11.4%
> O=C1OC2(CCCCC2)CC2=C1C1O[C@](c3ccsc3)(Cc3c1ccc1ccccc31)O2
→ -0.2%[7.66 µM] | x | x | x | x
> Cc1nn(CC(=O)NCCCN2CCC(Cc3ccccc3)CC2)c(=O)c2cc(-c3ccccc3)nn12
→ -3.2% | 5.3% | 18.4µM* | 3.6% | 18.4µM*
> CCc1ccc(-c2cc3c(=O)n(CC(=O)NCCCN4CCC(Cc5ccccc5)CC4)nc(C)n3n2)cc1
→ 0.0% | -16.8% | u | 2.2% | u
> CCN1CCN(CCCNC(=O)Cn2nc(C)n3nc(-c4ccccc4)cc3c2=O)CC1
→ 0.0% | 3.5% | 6.8% | 0.2% | -0.8%
> Cc1nn(CC(=O)NCCCN2CCN(Cc3ccccc3)CC2)c(=O)c2cc(-c3ccccc3)nn12
→ -2.0% | -7.4% | 20.6µM* | 3.4% | u
> O=C1CC(c2ccco2)CC2=C1C(c1ccncc1)n1nc(C(F)(F)F)nc1N2 (centres undefined)
→ x | x | x | -0.4% | x
> N#Cc1ccc(N[C@@H]2CCN3C(=O)c4ccccc4[C@@H]3C[C@H]2O)cc1
→ x | 3.2% | -14.0% | -0.3%[56.1 µM] | -11.7%
> CCC(CC)C(=O)NN(C(=O)c1ccncc1)C1CC(=O)N(c2ccccc2)C1=O (centres undefined)
→ -6.5% | 0.8% | 0.4% | 2.7% | 7.2%
> O=S(=O)(c1ccc(Cl)cc1)c1nc(-c2cccs2)oc1SCc1ccc(F)cc1
→ 12.7% | x | u | 0.0% | 20.6µM*
> CCOc1ccc(NC(=O)CSc2oc(-c3cccs3)nc2S(=O)(=O)c2ccc(Cl)cc2)cc1
→ 17.3% | x | 13µM* | 5.9% | 18.4µM*

Given field by field: part of the list above
O=S(=O)(c1ccc(Cl)cc1)c1nc(-c2cccs2)oc1SCc1ccc(F)cc1
  miR-21 reporter = 12.7%	uPA generation = x	DT40 TDP1 no CPT = u	TDP1 inh = 0.0%	DT40 TDP1 CPT = 20.6µM*
Cc1nn(CC(=O)NCCCN2CCC(Cc3ccccc3)CC2)c(=O)c2cc(-c3ccccc3)nn12
  miR-21 reporter = -3.2%	uPA generation = 5.3%	DT40 TDP1 no CPT = 18.4µM*	TDP1 inh = 3.6%	DT40 TDP1 CPT = 18.4µM*
Cc1nn(CC(=O)NCCCN2CCN(Cc3ccccc3)CC2)c(=O)c2cc(-c3ccccc3)nn12
  miR-21 reporter = -2.0%	uPA generation = -7.4%	DT40 TDP1 no CPT = 20.6µM*	TDP1 inh = 3.4%	DT40 TDP1 CPT = u

Next part.
Fields: miR-21 reporter | uPA generation | DT40 TDP1 no CPT | TDP1 inh | DT40 TDP1 CPT
> CCOc1ccc(NC(=O)CSc2oc(-c3ccc(C)cc3)nc2S(=O)(=O)c2ccc(C)cc2)cc1
→ u | x | 5.8µM* | 8.8% | 7.31µM*
> Cc1ccc(S(=O)(=O)c2nc(-c3ccc(F)cc3)oc2SCC(=O)NC2CCCCC2)cc1
→ 0.0% | x | u | 8.8% | -2.1%
> Cc1ccc(NC(=S)N(CCN(C)C)C(C)c2cccnc2)c(C)c1 (centres undefined)
→ -6.8% | -7.2% | -8.9% | 10.5% | 3.5%
> CCOC(=O)[C@@H]1[C@H]2COc3ccccc3[C@@H]2N2C(=O)N(c3cccc(C)c3)C(=O)[C@]12C
→ 2.0% | -9.9% | u | x | u
> COc1ccc(Br)cc1CNc1ccccc1
→ -21.9% | -8.6% | u | 2.6% | u
> S=C(c1ccc2c(c1)OCO2)N1CCN(c2cccc(Cl)c2)CC1
→ x | -20.4% | 4.11µM* | x | 3.66µM*
> Cc1cccc(N2CCN(C(=S)c3ccc4c(c3)OCO4)CC2)c1
→ x | u | 5.8µM* | x | 6.51µM*
> CCc1cccc(NS(=O)(=O)c2csc(C(N)=O)c2)c1
→ 12.2% | -2.7% | 14.6µM* | x | -22.7%
> Cc1cc(C)cc(NS(=O)(=O)c2csc(C(N)=O)c2)c1
→ 0.5% | -0.2% | -24.8% | x | 2.3%
> Cc1ccc(NS(=O)(=O)c2csc(C(N)=O)c2)c(C)c1
→ 0.9% | 9.6% | -24.7% | x | -14.4%
> Cc1ccc(NS(=O)(=O)c2csc(C(N)=O)c2)cc1C
→ 6.5% | 2.0% | 20.6µM* | x | u
> N#CC1=C(N)C(C#N)(C#N)[C@H](c2cccnc2)[C@H]2CN(C(=O)OCc3ccccc3)CC=C12
→ -1.8% | u | 14.6µM* | 5.3% | u
> CCOC(=O)N1CC=C2C(C#N)=C(N)C(C#N)(C#N)[C@H](c3ccccc3OCC)[C@H]2C1
→ -8.4% | -17.1% | u | -7.1% | u
> N#CC1=C(N)C(C#N)(C#N)C(c2cccnc2)C2CC(c3ccccc3)CC=C12 (centres undefined)
→ u | 2.2% | 20.6µM* | 1.9% | 16.4µM*
> N#CC1=C(N)C(C#N)(C#N)C(c2cccnc2)C2CCCC=C12 (centres undefined)
→ 13.1% | x | x | 5.2% | x

(further entries)
Fields: miR-21 reporter | uPA generation | DT40 TDP1 no CPT | TDP1 inh | DT40 TDP1 CPT
> N#CC1=C(N)C(C#N)(C#N)C(c2ccncc2)C2CN(C(=O)OCc3ccccc3)CC=C12 (centres undefined)
→ -6.6% | -0.4% | 16.4µM* | 1.7% | 20.6µM*
> CCOC(=O)N1CC=C2C(C#N)=C(N)C(C#N)(C#N)[C@H](c3ccc(OC(C)C)c(OCC)c3)[C@H]2C1
→ -8.1% | 3.0% | u | 0.0% | -113.7%
> CS(=O)(=O)Nc1ccc(-c2cncc3nccn23)cc1
→ x | x | u | x | -1.8%
> CCc1ccc(NC(=O)C(=O)N/N=C(\C)CC(=O)NCc2ccc(Cl)cc2)cc1
→ -15.2% | -10.3% | -23.6% | -1.3% | -9.7%
> c1ccc2c(c1)nc(CN1CCOCC1)n1c3ccccc3nc21
→ -11.7% | -4.4% | 16.4µM* | 7.1% | 13µM*
> CC(C)(C)c1ccc(S(=O)(=O)n2c(CN3CCOCC3)nc3ccccc32)cc1
→ -3.2% | 1.3% | u | 3.9% | 20.6µM*
> COc1ccc(S(=O)(=O)n2c(CCN3CCOCC3)nc3ccccc32)cc1
→ -14.3% | 1.2% | 20.6µM* | 10.9% | -27.8%
> CCCc1cc(=O)[nH]c(SCC(=O)NCCC2=CCCCC2)n1
→ -2.6% | 2.7% | 1.7% | 2.5% | -5.5%
> COCc1[nH][nH]c(=O)c1C=NCC(=O)OC
→ 4.2% | 7.9% | 7.9% | -3.6% | 2.4%
> COc1cccc(C(=O)NC(=S)Nc2ccc(N3CCCC3)cc2)c1
→ -15.7% | 5.4% | 16.4µM* | 13.7% | u
> COc1ccc(C(=O)NC(=S)Nc2ccc(N3CCCC3)cc2)cc1
→ -3.1% | -1.2% | -19.3% | 8.2% | -13.7%
> CCOc1cccc(C(=O)Nc2ccc(N(CC)CC)cc2)c1
→ -2.7% | -16.7% | u | 8.3% | 20.6µM*
> O=C(NC(=S)Nc1ccc(N2CCOCC2)cc1)c1cccc(Cl)c1Cl
→ 0.2% | 5.5% | 3.8% | -9.8% | 8.2%
> CCOc1ccc(OCc2cccc(C(=O)Nc3ccc(CN4CCCCC4)cc3)c2)cc1
→ -35.2% | -13.1% | 20.6µM* | 2.6% | 8.2µM*
> CN1CCN(c2ccc(NC(=S)NC(=O)c3cccc4c(Cl)cccc34)cc2)CC1
→ -1.8% | 1.6% | u | 4.7% | 16.4µM*
> CCOc1cccc(C(=O)Nc2ccc3ccccc3c2)c1
→ -6.9% | -12.7% | -23.9% | x | 25.1%
> Cc1c(NC(=O)c2cc(-c3cccs3)on2)c(=O)n(-c2ccccc2)n1C
→ -8.0% | x | -13.8% | -4.7% | -21.6%
